Assay results reported in US20060183182A1, “Enzyme substrate” (SmithKline Beecham p.l.c., priority 2000, published 2006).

Protein sequences, listed by entry. Tags and fused reporters are not part of them.
UniProt P11712, whole entry: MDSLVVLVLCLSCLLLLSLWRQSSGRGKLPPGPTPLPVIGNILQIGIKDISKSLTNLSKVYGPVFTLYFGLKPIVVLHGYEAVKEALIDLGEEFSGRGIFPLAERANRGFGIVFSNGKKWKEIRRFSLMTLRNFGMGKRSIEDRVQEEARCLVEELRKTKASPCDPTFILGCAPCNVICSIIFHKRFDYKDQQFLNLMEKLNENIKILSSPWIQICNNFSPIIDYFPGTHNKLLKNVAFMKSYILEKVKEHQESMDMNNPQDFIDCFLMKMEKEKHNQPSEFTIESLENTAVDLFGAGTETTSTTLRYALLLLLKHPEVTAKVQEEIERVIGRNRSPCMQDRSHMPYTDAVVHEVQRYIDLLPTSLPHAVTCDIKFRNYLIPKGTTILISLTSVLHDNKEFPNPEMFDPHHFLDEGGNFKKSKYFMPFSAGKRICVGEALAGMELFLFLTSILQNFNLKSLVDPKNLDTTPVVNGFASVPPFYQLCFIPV

Biological target: CYP2C9 (Homo sapiens, UniProt P11712)
Conditions: read-out: IC50 for inhibition of 3-butyryl-7-methoxycoumarin metabolism by CYP2C9; 20 μM 3-butyryl-7-methoxycoumarin substrate, 200 μg/mL CYP2C9 microsomal protein, pH 7.4, 37° C., FIG. 2

sulphaphenazole
IC50: 600 nM
